This is an account of results in US20120258108A1 (AbbVie / Abbott, published 2012).

The chains behind the UniProt entries cited, without tags or fusion partners. Residues count along the entry.
UniProt Q9NR61, 27-524 limits assumed: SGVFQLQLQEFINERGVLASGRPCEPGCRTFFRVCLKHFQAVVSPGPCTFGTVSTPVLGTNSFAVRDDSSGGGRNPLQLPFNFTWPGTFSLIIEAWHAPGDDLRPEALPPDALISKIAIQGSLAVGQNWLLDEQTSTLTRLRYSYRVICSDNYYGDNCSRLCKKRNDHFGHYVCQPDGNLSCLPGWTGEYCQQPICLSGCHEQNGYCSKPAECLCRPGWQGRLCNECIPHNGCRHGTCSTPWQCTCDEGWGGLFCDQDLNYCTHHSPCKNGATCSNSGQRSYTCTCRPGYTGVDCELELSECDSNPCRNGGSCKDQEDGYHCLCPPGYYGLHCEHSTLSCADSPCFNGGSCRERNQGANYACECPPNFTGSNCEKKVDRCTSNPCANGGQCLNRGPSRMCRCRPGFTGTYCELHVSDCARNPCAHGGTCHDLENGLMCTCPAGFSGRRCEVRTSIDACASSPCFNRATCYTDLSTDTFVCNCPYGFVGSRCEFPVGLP

What is called Kd is a measure of binding affinity in units of concentration. In general, koff refers to a measure of how fast the partners let go of each other. By kon is commonly meant the rate constant with which the complex forms.

The target of this assay is Recombinant Human DLL4 (human, UniProt Q9NR61 27-524). Kind of assay: SPR (BIACORE). As to the method: The BIACORE assay (Biacore, Inc, Piscataway, N.J.) determines the affinity of antibodies or DVD-Ig with kinetic measurements of on-rate and off-rate constants. Binding of antibodies or DVD-Ig to a target antigen (for example, a purified recombinant target antigen) was determined by surface plasmon resonance-based measurements with a Biacore® 1000 or 3000 instrument (Biacore® AB, Uppsala, Sweden) using running HBS-EP (10 mM HEPES [pH 7.4], 150 mM NaCl, 3 mM EDTA, and 0.005% surfactant P20) at 25° C. All chemicals were obtained from Biacore® AB (Uppsala, Sweden) or otherwise from a different source as described in the text. For example, approximately 5000 RU of goat anti-mouse IgG, (Fcγ), fragment specific polyclonal antibody (Pierce Biotechnology Inc, Rockford, Ill.) diluted in 10 mM sodium acetate (pH 4.5) is directly immobilized across a CM5 research grade biosensor chip using a standard amine coupling kit according to manufacturer's instructions and procedures at 25 μg/ml. Unreacted moieties on the biosensor surface are blocked with ethanolamine. Modified carboxymethyl dextran surface in flowcell 2 and 4 is used as a reaction surface. Unmodified carboxymethyl dextran without goat anti-mouse IgG in flow cell 1 and 3 is used as the reference surface. For kinetic analysis, rate equations derived from the 1:1 Langmuir binding model are fitted simultaneously to association and dissociation phases of all eight injections (using global fit analysis) with the use of Biaevaluation 4.0.1 software. Purified antibodies or DVD-Ig are diluted in HEPES-buffered saline for capture across goat anti-mouse IgG specific reaction surfaces. Antibodies or DVD-Ig to be captured as a ligand (25 μg/ml) are injected over reaction matrices at a flow rate of 5 μl/min. The association and dissociation rate constants, kₒₙ (M⁻¹ s⁻¹) and koff (s⁻¹) are determined under a continuous flow rate of 25 μl/min. Rate constants are derived by making kinetic binding measurements at different antigen concentrations ranging from 10-200 nM. The equilibrium dissociation constant (M) of the reaction between antibodies or DVD-Igs and the target antigen is then calculated from the kinetic rate constants by the following formula: KD=koff/kₒₙ. Binding is recorded as a function of time and kinetic rate constants are calculated.
On the technique in general: Surface plasmon resonance follows binding to a sensor surface in real time, without labels.

B1: AB310 (antibody, human IgG1, kappa, V domains shown)
VH: EVQLLESGGGLVQPGGSLRLSCAASGFTFSNFPMAWVRQAPGKGLEWVATISSSDGTTYYRDSVKGRFTISRDNSKNTLYLQMNSLRAEDTAVYYCARGYYNSPFAYWGQGTLVTVSS
VL: EIVMTQSPGTLSLSPGERATLSCRASEDIYSNLAWYQQKPGQAPRLLIYDTNNLADGVPDRFSGSGSGTDFTLTISRLEPEDFAVFYCQQYNNYPPTFGQGTKVEIKR
With B1, the Kd is 23 nM, the koff was 0.0031 s⁻¹ and the kon is 130000 M⁻¹ s⁻¹.

B2: AB296 (antibody, V domains shown)
VH: EVQLVESGGGLVQPGGSLRLSCAVSGGSISSSSYYWGWIRQAPGKGLEWIGDIYYTGSTYYNPSLKSRVTISVDTSKNTFYLQMNSLRAEDTAVYYCARQALAMGGGSDKWGQGTLVTVSS
VL: DYQLTQSPSSLSASVGDRVTITCSGQRLGDKYASWYQQKPGKSPKLVIYEDSKRPSGIPSRFSGSNSGDDATLTISSLQPEDFATYYCQAWDRDTGVFGQGTKVEIKR
Turning to B2, the Kd was determined as 1.5 nM, the koff is 0.00013 s⁻¹ and the kon amounted to 85000 M⁻¹ s⁻¹.
